One compound from patent US20180207148A1 (priority 2015, published 2018) can be followed below.

Molecules are shown by their SMILES.

Data set [1] is described as follows: Paclitaxel pharmacokinetics in rats after single oral dose with Compound A. To be noted: rat, in vivo.
Data set [2] is described as follows: in vivo. As to conditions: dog, po, 6 mg/kg, dogs, Fasted, paclitaxel 6 mg/kg with Compound A 3 mg/kg, single oral dose.
A short description of data set [3]: Paclitaxel pharmacokinetics in dogs after single oral dose with Compound A. As to conditions: dog, in vivo.
Data set [4] is described as follows: clinical. To be noted: human, in vivo, po.

On to `CC(=O)O[C@H]1C(=O)[C@@]2(C)[C@H]([C@H](OC(=O)c3ccccc3)[C@]3(O)C[C@H](OC(=O)[C@H](O)[C@@H](NC(=O)c4ccccc4)c4ccccc4)C(C)=C1C3(C)C)[C@]1(OC(C)=O)CO[C@@H]1C[C@@H]2O` [Paclitaxel, 5,20-Epoxy-1,2,4,7,10-13-hexahydroxytax-11-en-9-one-4,10-diacetate 2-benzoate 13-ester with (2R,3S)—N-benzoyl-3-phenylisoserine], for which the half-life is 8.2 h in data set [1] (5 mg/kg); 8.7 h in data set [1] (10 mg/kg); 7.5 h in data set [1] (20 mg/kg); 7.4 h in data set [3] (2 mg/kg); 8.1 h in data set [3] (4 mg/kg); 7.3 h in data set [3] (6 mg/kg). The peak concentration (Cmax) in data set [2] was 684 ± 175 ng/mL; in data set [3] (2 mg/kg) it was 128 ng/mL; in data set [3] (4 mg/kg) it was 661 ng/mL; in data set [3] (6 mg/kg), 1110 ng/mL; in data set [4] (120 mg/m2) it was 655 ng/mL; in data set [4] (360 mg/m2), 655 ng/mL. In data set [4] (420 mg/m2), this compound yielded a Cmax of 708 ng/mL.
